Values of other authors in publication PMC1307573 (Journal of Insect Science, 2005).

Conditions: NO donor; cited from earlier work

CCN(CC)/[N+]([O-])=N/O [DEA-NONOate, diethylamine- (DEA)-NONOate]
half-life: 16 min
